Source: ChEMBL document CHEMBL1127733, “Aspartyl alpha-((1-phenyl-3-(trifluoromethyl)-pyrazol-5-yl)oxy)methyl ketones as interleukin-1 beta converting enzyme inhibitors. Significance of the P1 and P3 amido nitrogens for enzyme-peptide inhibitor binding” (J Med Chem, 1994)

Molecular target: T1, Caspase-1 (Homo sapiens) (UniProt P29466)
T1 sequence (whole entry): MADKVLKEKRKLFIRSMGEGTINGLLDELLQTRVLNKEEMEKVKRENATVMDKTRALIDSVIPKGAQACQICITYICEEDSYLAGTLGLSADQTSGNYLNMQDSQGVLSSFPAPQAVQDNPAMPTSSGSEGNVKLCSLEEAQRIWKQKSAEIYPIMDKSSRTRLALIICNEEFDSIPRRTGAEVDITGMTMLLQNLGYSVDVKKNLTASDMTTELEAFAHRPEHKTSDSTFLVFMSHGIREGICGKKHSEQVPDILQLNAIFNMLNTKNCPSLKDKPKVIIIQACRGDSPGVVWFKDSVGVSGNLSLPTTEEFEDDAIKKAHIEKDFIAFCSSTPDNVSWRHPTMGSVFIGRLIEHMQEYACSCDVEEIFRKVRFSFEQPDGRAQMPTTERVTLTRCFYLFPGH
Assay: Inhibition constant against interleukin-1-beta converting enzyme

## CC(C)[C@H](NC(=O)OCc1ccccc1)C(=O)N1CCCC[C@H]1C(=O)N[C@@H](CC(=O)O)C(=O)COc1cc(C(F)(F)F)nn1-c1ccccc1
  K obs / 1: 271000 M⁻¹ s⁻¹

## CC(C)[C@H](NC(=O)OCc1ccccc1)C(=O)N[C@@H](C)C(=O)N[C@@H](CC(=O)O)C(=O)COc1cc(C(F)(F)F)nn1-c1ccccc1
  K obs / 1: 280000 M⁻¹ s⁻¹
